Measurements: ChEMBL document CHEMBL4311994, “New 2,6-diaminopyridines containing a sterically hindered benzylphosphonate moiety in the aromatic core as potential antioxidant and anti-cancer drugs” (Eur J Med Chem, 2019)

Experiment: Antioxidant activity assessed as ABAP free radical scavenging activity by measuring decrease in chemiluminescence intensity at 0.25 to 1 mM by luminescence based assay
Assay type: functional

Question: For CC(C)(C)c1cc(C2c3ccc(N)nc3NP2(=O)Oc2ccccc2)cc(C(C)(C)C)c1O (stereo unspecified), which Activity is on record?
Answer: Active

Calls of active or inactive are those of the source. No cut-off for these calls is given here.
